Test results reported in PubChem BioAssay AID602124 (The Scripps Research Institute Molecular Screening Center, 2011).
This is a selection; strong and weak results do not stand in their true shares. Activity calls are given as the source filed them. Cut-off read from the data, not from the text of the source: active = inhibition above about 6.5%; inactive = the rest.

The chains behind the UniProt entries cited, without tags or fusion partners.
UniProt P00519, whole entry, looked up: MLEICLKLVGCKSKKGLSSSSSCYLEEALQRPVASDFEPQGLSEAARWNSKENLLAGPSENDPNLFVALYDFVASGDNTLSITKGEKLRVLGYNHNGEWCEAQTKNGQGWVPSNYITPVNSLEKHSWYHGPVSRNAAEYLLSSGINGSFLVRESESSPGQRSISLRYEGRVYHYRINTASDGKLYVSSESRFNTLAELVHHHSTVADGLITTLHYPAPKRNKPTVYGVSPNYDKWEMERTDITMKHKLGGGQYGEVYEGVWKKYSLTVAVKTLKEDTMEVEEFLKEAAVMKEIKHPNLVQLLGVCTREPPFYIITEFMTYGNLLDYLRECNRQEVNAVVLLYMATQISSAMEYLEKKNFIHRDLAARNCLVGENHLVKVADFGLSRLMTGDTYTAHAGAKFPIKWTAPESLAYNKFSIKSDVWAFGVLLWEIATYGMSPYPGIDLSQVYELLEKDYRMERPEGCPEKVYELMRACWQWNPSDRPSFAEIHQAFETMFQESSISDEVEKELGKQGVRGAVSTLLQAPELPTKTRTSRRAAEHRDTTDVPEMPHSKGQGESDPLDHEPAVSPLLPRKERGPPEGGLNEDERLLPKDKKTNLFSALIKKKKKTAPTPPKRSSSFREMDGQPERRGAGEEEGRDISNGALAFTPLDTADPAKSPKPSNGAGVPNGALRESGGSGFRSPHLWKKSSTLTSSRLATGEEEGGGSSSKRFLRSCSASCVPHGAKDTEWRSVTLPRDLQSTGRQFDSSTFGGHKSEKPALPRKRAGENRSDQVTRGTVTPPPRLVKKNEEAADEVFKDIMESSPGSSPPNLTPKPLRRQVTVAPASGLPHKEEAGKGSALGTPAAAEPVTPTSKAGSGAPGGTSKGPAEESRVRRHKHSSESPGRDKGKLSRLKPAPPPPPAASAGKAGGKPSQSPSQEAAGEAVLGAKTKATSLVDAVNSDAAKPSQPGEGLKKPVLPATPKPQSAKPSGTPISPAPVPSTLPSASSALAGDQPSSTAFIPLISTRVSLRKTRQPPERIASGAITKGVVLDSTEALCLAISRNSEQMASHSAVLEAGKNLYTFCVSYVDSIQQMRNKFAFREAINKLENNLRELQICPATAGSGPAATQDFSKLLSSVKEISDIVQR
UniProt Q13671, whole entry, looked up: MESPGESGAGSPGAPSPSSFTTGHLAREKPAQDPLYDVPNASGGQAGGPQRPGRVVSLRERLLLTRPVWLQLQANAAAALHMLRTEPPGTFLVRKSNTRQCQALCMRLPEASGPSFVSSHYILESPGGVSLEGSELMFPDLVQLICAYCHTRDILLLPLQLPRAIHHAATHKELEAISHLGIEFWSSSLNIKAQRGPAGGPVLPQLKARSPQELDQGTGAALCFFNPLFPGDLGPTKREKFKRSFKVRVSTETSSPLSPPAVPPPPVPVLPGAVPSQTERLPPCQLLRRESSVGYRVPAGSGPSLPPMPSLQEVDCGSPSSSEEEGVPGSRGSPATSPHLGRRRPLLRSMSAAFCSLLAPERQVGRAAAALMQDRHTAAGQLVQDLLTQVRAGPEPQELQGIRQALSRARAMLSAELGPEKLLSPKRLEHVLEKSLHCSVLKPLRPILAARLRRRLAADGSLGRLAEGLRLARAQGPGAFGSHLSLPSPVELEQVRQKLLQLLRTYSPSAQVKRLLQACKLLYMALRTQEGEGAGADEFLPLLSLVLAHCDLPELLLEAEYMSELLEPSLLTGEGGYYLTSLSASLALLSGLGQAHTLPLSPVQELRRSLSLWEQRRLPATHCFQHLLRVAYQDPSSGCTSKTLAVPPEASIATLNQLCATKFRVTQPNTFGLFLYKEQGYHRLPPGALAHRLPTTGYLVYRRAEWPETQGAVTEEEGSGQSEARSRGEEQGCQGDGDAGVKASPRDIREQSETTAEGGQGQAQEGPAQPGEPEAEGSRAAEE

What follows are compounds tested against Tyrosine-protein kinase ABL1 (Homo sapiens) + Ras and Rab interactor 1 (Homo sapiens) (UniProt P00519+Q13671) (assay: Rin1-Abl binding inhibitor retest, confirmation, biochemical, TR-FRET (AID 602124)). Conditions: purified proteins, at 7.35 µM, active compounds read high.

SMILES	inhibition
CCC(c1nnnn1C1CCCC1)N1CCC(n2c(=O)[nH]c3ccccc32)CC1 (stereo not given)	active: 16.7%
O=c1[nH]c2ccccc2n1C1CCN(C(c2cc3ccccc3o2)c2nnnn2C2CCCCC2)CC1 (stereo not given)	active: 12.9%
CCC(c1nnnn1C(C)(C)C)N1CCC(n2c(=O)[nH]c3ccccc32)CC1 (stereo not given)	active: 15.4%
O=c1[nH]c2ccccc2n1C1CCN(C(c2cccs2)c2nnnn2C2CCCCC2)CC1 (stereo not given)	active: 13%
CCC(c1nnnn1C1CCCCC1)N1CCC(n2c(=O)[nH]c3ccccc32)CC1 (stereo not given)	active: 45%
